Measurements published in patent US4122189A, “Medicine for renal diseases” (priority 1976, dated 1978).

Assays:
[1] = tested on: Aminonucleoside nephrose; assay: Therapy for Aminonucleoside nephrose (urine and blood biochemical observations); format: in vivo, SD type male rats; conditions: 1000 mg/kg/day oral, 10 days; normal 0.68, renal disease group 0.16; significance *
Description: SD type male rats (weight about 100 g) were fed in each individual room of a metabolism cage under the free water and feed supply.
The rats were classified as the normal group for eight rats, the renal disease group for eight rats and the therapy group for eight rats.
0.3% Aminoucleoside aqueous solution (hereinafter referring to as AN) was administrated by intramuscular injection at a dose of 0.3 ml per 100 g of the rat.
The administration was continued from the 1st day to the 14th day at one time per day.
For the therapy group, methyl methionine sulfonium chloride was administrated by the oral dose at a dose of 1000 mg/kg (in a form of 1.0 ml per 100 g of the weight of rat) at one time per day for 10 days with AN from 5th day when the increase of the amount of urine protein was found.
The data in Tables are average value for eight rats in each group.
The difference between the renal disease group and the therapy group was significant. The symbol * means the existence of significant difference in 5% of the level of significance and the symbol (*) means the existence of significant difference in 5 to 1% of the level of significance. The symbol -- means non-significant difference.

[2] = Toxicity test (LD50); parameters: species or system ddY type mice; conditions: mouse, in vivo, LD50
Description: (§1) Methyl methionine sulfonium chloride was dissolved in each distilled water at various concentration to give 0.2 ml per 10 g of mouse.
(§2) The test was carried out by the oral dose and the intraperitoneal injection of each solution in 10 ddY type male mice and 10 ddY femal mice. The results after 72 hours from the administration were observed. Probit analysis was used for statistical treatment of mortality.

[3] = tested on: mouse; assay: Toxicity test (LD50); parameters: species or system ddY type mice; conditions: in vivo, 72 h
Description: as §1, §2

C[S+](C)CCC(N)C(=O)O (centres unmarked) [Methyl methionine sulfonium chloride]
Serum Albumin/Globulin ratio [1]: 0.41 | LD50 at 72 h ([2]; ip): 8140 mg/kg | LD50 at 72 h ([2]; po): 11900 mg/kg | LD50 ([3]; ip): 7910 mg/kg | LD50 ([3]; po): 11255 mg/kg
